The values that follow come from US9073897B2, “Cyclic sulfonium salt, process for production of same, and α-glucosidase inhibitor comprising same” (KINKI UNIVERSITY, priority 2011, dated 2015).

Sequences of proteins named here, by UniProt entry; tags and fusion partners are left off. A change or cut given only in a name is not applied to a line headed by its entry.
UniProt P23739: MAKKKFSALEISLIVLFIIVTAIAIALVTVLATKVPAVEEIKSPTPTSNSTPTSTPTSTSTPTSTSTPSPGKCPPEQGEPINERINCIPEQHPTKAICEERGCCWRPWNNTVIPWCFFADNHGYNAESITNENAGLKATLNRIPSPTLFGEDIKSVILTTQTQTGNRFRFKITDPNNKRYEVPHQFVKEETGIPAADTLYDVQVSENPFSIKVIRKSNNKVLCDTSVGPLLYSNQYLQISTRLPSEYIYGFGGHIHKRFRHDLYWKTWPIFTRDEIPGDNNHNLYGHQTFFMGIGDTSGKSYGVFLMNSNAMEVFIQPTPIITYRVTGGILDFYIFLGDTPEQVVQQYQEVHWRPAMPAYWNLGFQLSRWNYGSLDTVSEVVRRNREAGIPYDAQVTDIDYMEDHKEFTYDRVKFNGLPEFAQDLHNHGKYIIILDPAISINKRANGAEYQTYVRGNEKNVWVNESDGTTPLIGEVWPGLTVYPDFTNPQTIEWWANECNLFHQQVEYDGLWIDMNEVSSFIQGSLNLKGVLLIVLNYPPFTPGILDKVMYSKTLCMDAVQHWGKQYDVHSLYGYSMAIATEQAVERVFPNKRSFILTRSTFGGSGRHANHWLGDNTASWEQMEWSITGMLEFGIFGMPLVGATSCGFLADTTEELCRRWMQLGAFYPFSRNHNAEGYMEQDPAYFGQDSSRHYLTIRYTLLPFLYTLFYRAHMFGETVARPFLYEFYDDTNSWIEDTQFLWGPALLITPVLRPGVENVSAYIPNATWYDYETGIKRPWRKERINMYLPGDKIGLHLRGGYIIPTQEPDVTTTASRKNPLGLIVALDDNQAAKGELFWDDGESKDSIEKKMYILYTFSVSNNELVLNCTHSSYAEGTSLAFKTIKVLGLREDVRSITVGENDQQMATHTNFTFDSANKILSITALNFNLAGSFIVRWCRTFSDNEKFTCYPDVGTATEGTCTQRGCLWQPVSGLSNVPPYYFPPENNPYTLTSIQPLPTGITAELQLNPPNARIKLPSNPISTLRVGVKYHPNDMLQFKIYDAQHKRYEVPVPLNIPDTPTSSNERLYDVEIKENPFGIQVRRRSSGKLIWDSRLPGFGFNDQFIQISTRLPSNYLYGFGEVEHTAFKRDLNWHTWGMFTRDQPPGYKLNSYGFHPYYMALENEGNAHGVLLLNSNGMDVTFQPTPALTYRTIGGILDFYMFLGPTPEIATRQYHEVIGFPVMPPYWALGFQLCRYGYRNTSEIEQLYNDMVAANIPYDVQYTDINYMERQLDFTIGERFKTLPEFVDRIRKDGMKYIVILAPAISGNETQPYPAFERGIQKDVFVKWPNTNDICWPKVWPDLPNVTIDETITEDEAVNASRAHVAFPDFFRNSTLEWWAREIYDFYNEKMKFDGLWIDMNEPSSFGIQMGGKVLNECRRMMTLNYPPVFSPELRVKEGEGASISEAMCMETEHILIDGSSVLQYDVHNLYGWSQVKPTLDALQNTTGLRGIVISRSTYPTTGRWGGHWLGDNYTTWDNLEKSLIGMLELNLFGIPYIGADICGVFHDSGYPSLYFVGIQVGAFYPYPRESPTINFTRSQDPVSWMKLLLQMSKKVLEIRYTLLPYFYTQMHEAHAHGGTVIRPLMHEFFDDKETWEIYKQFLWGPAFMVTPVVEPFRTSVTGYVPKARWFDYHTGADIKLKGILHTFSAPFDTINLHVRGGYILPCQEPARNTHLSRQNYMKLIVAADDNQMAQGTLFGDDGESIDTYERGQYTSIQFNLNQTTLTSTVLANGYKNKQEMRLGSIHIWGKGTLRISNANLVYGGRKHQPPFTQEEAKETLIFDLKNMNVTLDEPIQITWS

In one assay the target is T1, Sucrase (Rattus norvegicus, UniProt P23739).
T1 construct: Brush border membrane follicles of rat's small intestine were prepared; from tissue; host or cells: rat small intestine brush border membrane vesicles
Briefly: α-glucosidase inhibition, rat small intestinal brush border membrane, sucrose substrate. Type of assay: biochemical. Particulars: rat small intestine brush border membrane; sucrose (74 mM); 0.1M maleate buffer (pH6.0); 37° C. for 30 minutes. The protocol:
(§1) Brush border membrane follicles of rat's small intestine were prepared in accordance with the literature (Kessler, M. et al., Biochem. Biophys. Act, 1978, 506, 136), and a suspension of the follicles in 0.1M maleate buffer (pH6.0) was used as an intraintestinal α-glucosidase (maltase, sucrose and isomaltase).
(§2) A compound to be tested was dissolved in methylsulfoxide (DMSO) and the resulting solution was diluted with 0.1M maleate buffer to prepare a solution of the testing compound (DMSO concentration: 10%). A solution of a substrate (sucrose (74 mM), maltose (74 mM) or isomaltose (74 mM, […]) in the maleate buffer, a solution (25 μl) of the testing compound and the enzyme solution (25 μl) were mixed and the resulting solution was incubated at 37° C. for 30 minutes. Immediately after incubation, the resulting solution was heated by boiling water to terminate the reaction and mixed with water (150 μl). The concentration of glucose was measured by glucose oxidase method. The final concentration of DMSO in the testing solution was set to 2.5%, and no influence of DMSO on an inhibitory activity was detected. A 50% inhibitory concentration (IC50) was computed from the measured values.

The target in a further assay is T2, Isomaltase (Rattus norvegicus, UniProt P23739).
T2 construct: Brush border membrane follicles of rat's small intestine were prepared; from tissue; host or cells: rat small intestine brush border membrane vesicles
Briefly: α-glucosidase inhibition, rat small intestinal brush border membrane, isomaltose substrate. The assay is classed as biochemical. Particulars: rat small intestine brush border membrane; isomaltose (74 mM); 0.1M maleate buffer (pH6.0); 37° C. for 30 minutes. The protocol: as §1, §2

Regarding `C[C@H]1O[C@H](O[C@H]2[C@H](O)[C@@H](O)[C@@H](O[C@H]3[C@H](O)[C@@H](O)C(O)O[C@@H]3CO)O[C@@H]2CO)[C@H](O)[C@@H](O)[C@@H]1N[C@H]1C=C(CO)[C@@H](O)[C@H](O)[C@H]1O` (some centres unmarked) [acalbose, reference compound], at Sucrase, the “α-glucosidase (IC50) Sucrase” value is 2 µg/mL. Further, the “α-glucosidase (IC50) Isomaltase” value on Isomaltase turned out to be 646 µg/mL.
